Assay results reported in ChEMBL document CHEMBL5523669, “Sialyl LewisX glycomimetics bearing an extended anionic chain targeting E- and P- selectin binding sites” (Bioorg Med Chem, 2024).

Molecular target: T1, P-selectin (Homo sapiens, UniProt P16109)
T1 sequence (P16109 whole entry): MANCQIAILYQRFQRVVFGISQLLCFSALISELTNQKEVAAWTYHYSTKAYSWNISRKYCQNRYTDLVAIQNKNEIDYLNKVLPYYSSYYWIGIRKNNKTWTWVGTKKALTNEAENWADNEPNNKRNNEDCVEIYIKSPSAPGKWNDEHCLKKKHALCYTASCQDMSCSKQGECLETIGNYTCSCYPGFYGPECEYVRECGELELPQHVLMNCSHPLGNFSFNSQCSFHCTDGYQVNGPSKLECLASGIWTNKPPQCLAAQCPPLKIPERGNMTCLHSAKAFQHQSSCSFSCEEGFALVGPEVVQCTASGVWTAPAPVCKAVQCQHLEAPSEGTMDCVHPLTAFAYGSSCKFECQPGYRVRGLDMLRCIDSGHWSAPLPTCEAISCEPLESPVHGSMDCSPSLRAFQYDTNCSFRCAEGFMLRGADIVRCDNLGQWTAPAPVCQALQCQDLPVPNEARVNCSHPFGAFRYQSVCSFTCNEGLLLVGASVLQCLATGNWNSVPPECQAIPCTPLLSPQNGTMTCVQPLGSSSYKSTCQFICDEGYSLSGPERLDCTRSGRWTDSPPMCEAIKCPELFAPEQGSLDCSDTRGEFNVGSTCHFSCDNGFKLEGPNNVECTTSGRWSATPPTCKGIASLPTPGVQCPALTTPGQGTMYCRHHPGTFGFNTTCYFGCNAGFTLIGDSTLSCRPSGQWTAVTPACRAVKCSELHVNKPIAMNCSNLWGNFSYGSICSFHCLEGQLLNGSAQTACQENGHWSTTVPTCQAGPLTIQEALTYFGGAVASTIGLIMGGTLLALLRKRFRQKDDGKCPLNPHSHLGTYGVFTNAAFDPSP
Assay: Antagonist activity at recombinant human P-selectin assessed as inhibition of P-selection binding to homodimer human PSGL-1-Fc interaction measured after 30 mins by surface plasmon resonance (SPR) spectroscopy

O=C(O)Cc1cccc(-c2cc(CCCCCCc3ccc(O[C@H]4O[C@H](CO)[C@@H](O)[C@H](O)[C@@H]4O)c(-c4cccc(CC(=O)O)c4)c3)ccc2O[C@H]2O[C@H](CO)[C@@H](O)[C@H](O)[C@@H]2O)c1 [BIMOSIAMOSE]
IC50: 249 µM
